Cyclic peptide permeability, from CycPeptMPDB

Values of Kelly et al. 2021, doi:10.1021/jacs.0c06115, as listed in CycPeptMPDB.

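Conditions beyond the assay type are not listed; see the original paper. Other peptides of the study may be missing here. Entries at the database's floor value (log10 P of -10) are not listed.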

PAMPA is the parallel artificial membrane permeability assay, which has no cells and reads passive diffusion.
Values are log10 P with P in cm/s, so -5 is more permeable than -7.

| SMILES | PAMPA (log10 cm/s) |
|---|---|
| CC(=O)N1CCC[C@H]1C(=O)N(C)[C@@H](CC(C)C)C(=O)N[C@@H]1C(=O)N(C)[C@@H](CC(C)C)C(=O)N(C)[C@@H](CC(C)C)C(=O)N(C)[C@@H](CC(C)C)C(=O)N(C)[C@H](C)C(=O)N[C@@H](CC(C)C)C(=O)N2CCC[C@H]2C(=O)O[C@@H]1C | -5.31 |
| CC(=O)N1CCC[C@H]1C(=O)N(C)[C@H](CC(C)C)C(=O)N[C@@H]1C(=O)N(C)[C@@H](CC(C)C)C(=O)N[C@@H](CC(C)C)C(=O)N(C)[C@@H](CC(C)C)C(=O)N[C@@H](C)C(=O)N[C@@H](CC(C)C)C(=O)N2CCC[C@H]2C(=O)O[C@@H]1C | -5.18 |
| CC(=O)N1CCC[C@H]1C(=O)N(C)[C@@H](CC(C)C)C(=O)N[C@@H]1C(=O)N[C@H](CC(C)C)C(=O)N[C@@H](CC(C)C)C(=O)N(C)[C@H](CC(C)C)C(=O)N(C)[C@H](C)C(=O)N[C@@H](CC(C)C)C(=O)N2CCC[C@H]2C(=O)O[C@@H]1C | -5.48 |
| CC(=O)N1CCC[C@H]1C(=O)N(C)[C@@H](CC(C)C)C(=O)N[C@@H]1C(=O)N(C)[C@@H](CC(C)C)C(=O)N(C)[C@H](CC(C)C)C(=O)N[C@@H](CC(C)C)C(=O)N[C@@H](C)C(=O)N[C@@H](CC(C)C)C(=O)N2CCC[C@H]2C(=O)O[C@@H]1C | -6.02 |
| CC(=O)N1CCC[C@@H]1C(=O)N(C)[C@H](CC(C)C)C(=O)N[C@@H]1C(=O)N[C@H](CC(C)C)C(=O)N(C)[C@@H](CC(C)C)C(=O)N[C@H](CC(C)C)C(=O)N[C@@H](C)C(=O)N[C@H](CC(C)C)C(=O)N2CCC[C@H]2C(=O)O[C@@H]1C | -6.38 |
| CC(=O)N1CCC[C@H]1C(=O)N[C@@H]1C(=O)N[C@H](CC(C)C)C(=O)N(C)[C@@H](CC(C)C)C(=O)N(C)[C@H](CC(C)C)C(=O)N(C)[C@@H](CC(C)C)C(=O)N(C)[C@@H](C)C(=O)N[C@@H](CC(C)C)C(=O)N2CCC[C@@H]2C(=O)O[C@@H]1C | -5.12 |
| CC(=O)N1CCC[C@@H]1C(=O)N(C)[C@@H](CC(C)C)C(=O)N[C@@H]1C(=O)N(C)[C@@H](CC(C)C)C(=O)N[C@@H](CC(C)C)C(=O)N(C)[C@H](CC(C)C)C(=O)N(C)[C@@H](C)C(=O)N[C@@H](CC(C)C)C(=O)N2CCC[C@H]2C(=O)O[C@@H]1C | -5.43 |
| CC(=O)N1CCC[C@H]1C(=O)N(C)[C@H](CC(C)C)C(=O)N[C@@H]1C(=O)N(C)[C@@H](CC(C)C)C(=O)N[C@@H](CC(C)C)C(=O)N[C@H](CC(C)C)C(=O)N(C)[C@@H](C)C(=O)N[C@@H](CC(C)C)C(=O)N2CCC[C@H]2C(=O)O[C@@H]1C | -5.13 |
| CC(=O)N1CCC[C@@H]1C(=O)N(C)[C@H](CC(C)C)C(=O)N[C@@H]1C(=O)N[C@H](CC(C)C)C(=O)N(C)[C@@H](CC(C)C)C(=O)N(C)[C@@H](CC(C)C)C(=O)N(C)[C@@H](C)C(=O)N[C@H](CC(C)C)C(=O)N2CCC[C@H]2C(=O)O[C@@H]1C | -5.84 |
| CC(=O)N1CCC[C@@H]1C(=O)N(C)[C@H](CC(C)C)C(=O)N[C@@H]1C(=O)N(C)[C@H](CC(C)C)C(=O)N[C@@H](CC(C)C)C(=O)N(C)[C@H](CC(C)C)C(=O)N(C)[C@@H](C)C(=O)N[C@H](CC(C)C)C(=O)N2CCC[C@H]2C(=O)O[C@@H]1C | -5.16 |
| CC(=O)N1CCC[C@H]1C(=O)N(C)[C@@H](CC(C)C)C(=O)N[C@@H]1C(=O)N(C)[C@H](CC(C)C)C(=O)N[C@H](CC(C)C)C(=O)N(C)[C@@H](CC(C)C)C(=O)N(C)[C@H](C)C(=O)N[C@@H](CC(C)C)C(=O)N2CCC[C@H]2C(=O)O[C@@H]1C | -5.36 |
| CC(=O)N1CCC[C@@H]1C(=O)N(C)[C@@H](CC(C)C)C(=O)N[C@@H]1C(=O)N(C)[C@@H](CC(C)C)C(=O)N(C)[C@H](CC(C)C)C(=O)N[C@H](CC(C)C)C(=O)N(C)[C@H](C)C(=O)N[C@H](CC(C)C)C(=O)N2CCC[C@H]2C(=O)O[C@@H]1C | -5.99 |
| CC(=O)N1CCC[C@@H]1C(=O)N(C)[C@H](CC(C)C)C(=O)N[C@@H]1C(=O)N(C)[C@H](CC(C)C)C(=O)N[C@@H](CC(C)C)C(=O)N[C@@H](CC(C)C)C(=O)N[C@@H](C)C(=O)N[C@@H](CC(C)C)C(=O)N2CCC[C@H]2C(=O)O[C@@H]1C | -5.70 |
| CC(=O)N1CCC[C@H]1C(=O)N(C)[C@@H](CC(C)C)C(=O)N[C@@H]1C(=O)N[C@H](CC(C)C)C(=O)N[C@@H](CC(C)C)C(=O)N[C@@H](CC(C)C)C(=O)N(C)[C@H](C)C(=O)N[C@H](CC(C)C)C(=O)N2CCC[C@@H]2C(=O)O[C@@H]1C | -5.85 |
| CC(=O)N1CCC[C@@H]1C(=O)N(C)[C@@H](CC(C)C)C(=O)N[C@@H]1C(=O)N(C)[C@@H](CC(C)C)C(=O)N(C)[C@H](CC(C)C)C(=O)N(C)[C@H](CC(C)C)C(=O)N(C)[C@H](C)C(=O)N[C@@H](CC(C)C)C(=O)N2CCC[C@H]2C(=O)O[C@@H]1C | -5.95 |
| CC(=O)N1CCC[C@H]1C(=O)N(C)[C@H](CC(C)C)C(=O)N[C@@H]1C(=O)N(C)[C@H](CC(C)C)C(=O)N(C)[C@@H](CC(C)C)C(=O)N(C)[C@H](CC(C)C)C(=O)N(C)[C@H](C)C(=O)N[C@H](CC(C)C)C(=O)N2CCC[C@H]2C(=O)O[C@@H]1C | -5.19 |
| CC(=O)N1CCC[C@H]1C(=O)N(C)[C@H](CC(C)C)C(=O)N[C@@H]1C(=O)N(C)[C@H](CC(C)C)C(=O)N(C)[C@H](CC(C)C)C(=O)N(C)[C@@H](CC(C)C)C(=O)N(C)[C@@H](C)C(=O)N[C@H](CC(C)C)C(=O)N2CCC[C@H]2C(=O)O[C@@H]1C | -5.63 |
| CC(=O)N1CCC[C@H]1C(=O)N(C)[C@H](CC(C)C)C(=O)N[C@@H]1C(=O)N[C@H](CC(C)C)C(=O)N[C@@H](CC(C)C)C(=O)N[C@@H](CC(C)C)C(=O)N(C)[C@H](C)C(=O)N[C@H](CC(C)C)C(=O)N2CCC[C@@H]2C(=O)O[C@@H]1C | -6.21 |
| CC(=O)N1CCC[C@H]1C(=O)N(C)[C@@H](CC(C)C)C(=O)N[C@@H]1C(=O)N(C)[C@H](CC(C)C)C(=O)N(C)[C@@H](CC(C)C)C(=O)N[C@@H](CC(C)C)C(=O)N(C)[C@H](C)C(=O)N[C@@H](CC(C)C)C(=O)N2CCC[C@H]2C(=O)O[C@@H]1C | -5.88 |
| CC(=O)N1CCC[C@H]1C(=O)N(C)[C@@H](CC(C)C)C(=O)N[C@@H]1C(=O)N[C@@H](CC(C)C)C(=O)N(C)[C@@H](CC(C)C)C(=O)N(C)[C@H](CC(C)C)C(=O)N(C)[C@H](C)C(=O)N[C@@H](CC(C)C)C(=O)N2CCC[C@@H]2C(=O)O[C@@H]1C | -5.30 |
| CC(=O)N1CCC[C@H]1C(=O)N(C)[C@H](CC(C)C)C(=O)N[C@@H]1C(=O)N[C@@H](CC(C)C)C(=O)N(C)[C@@H](CC(C)C)C(=O)N(C)[C@H](CC(C)C)C(=O)N[C@@H](C)C(=O)N[C@@H](CC(C)C)C(=O)N2CCC[C@H]2C(=O)O[C@@H]1C | -6.63 |
| CC(=O)N1CCC[C@H]1C(=O)N(C)[C@H](CC(C)C)C(=O)N[C@@H]1C(=O)N(C)[C@H](CC(C)C)C(=O)N(C)[C@H](CC(C)C)C(=O)N(C)[C@@H](CC(C)C)C(=O)N(C)[C@H](C)C(=O)N[C@H](CC(C)C)C(=O)N2CCC[C@H]2C(=O)O[C@@H]1C | -5.04 |
| CC(=O)N1CCC[C@H]1C(=O)N(C)[C@H](CC(C)C)C(=O)N[C@@H]1C(=O)N(C)[C@H](CC(C)C)C(=O)N(C)[C@H](CC(C)C)C(=O)N[C@H](CC(C)C)C(=O)N(C)[C@@H](C)C(=O)N[C@H](CC(C)C)C(=O)N2CCC[C@@H]2C(=O)O[C@@H]1C | -5.50 |

Excerpt, the opening 2 entries:

{"smiles": "CC(=O)N1CCC[C@H]1C(=O)N(C)[C@@H](CC(C)C)C(=O)N[C@@H]1C(=O)N(C)[C@@H](CC(C)C)C(=O)N(C)[C@@H](CC(C)C)C(=O)N(C)[C@@H](CC(C)C)C(=O)N(C)[C@H](C)C(=O)N[C@@H](CC(C)C)C(=O)N2CCC[C@H]2C(=O)O[C@@H]1C", "PAMPA (log10 cm/s)": "-5.31"}
{"smiles": "CC(=O)N1CCC[C@H]1C(=O)N(C)[C@H](CC(C)C)C(=O)N[C@@H]1C(=O)N(C)[C@@H](CC(C)C)C(=O)N[C@@H](CC(C)C)C(=O)N(C)[C@@H](CC(C)C)C(=O)N[C@@H](C)C(=O)N[C@@H](CC(C)C)C(=O)N2CCC[C@H]2C(=O)O[C@@H]1C", "PAMPA (log10 cm/s)": "-5.18"}